Assay [1] deals with Peroxisome proliferator-activated receptor gamma (Homo sapiens, UniProt P37231).
In assay [2] the target is T1, Peroxisome proliferator-activated receptor delta (Homo sapiens, UniProt Q03181).
T1 sequence (Q03181 whole entry): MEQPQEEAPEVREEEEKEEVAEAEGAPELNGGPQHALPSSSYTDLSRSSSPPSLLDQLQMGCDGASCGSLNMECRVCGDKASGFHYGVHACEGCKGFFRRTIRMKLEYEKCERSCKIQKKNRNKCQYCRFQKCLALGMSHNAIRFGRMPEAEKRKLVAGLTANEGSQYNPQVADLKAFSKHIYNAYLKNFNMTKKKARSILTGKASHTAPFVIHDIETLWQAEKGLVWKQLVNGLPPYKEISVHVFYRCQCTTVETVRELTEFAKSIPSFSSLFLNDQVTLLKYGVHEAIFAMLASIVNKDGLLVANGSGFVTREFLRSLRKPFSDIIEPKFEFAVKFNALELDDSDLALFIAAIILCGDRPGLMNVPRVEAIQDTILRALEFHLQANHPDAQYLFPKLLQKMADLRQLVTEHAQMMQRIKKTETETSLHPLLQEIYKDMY

Sequences of proteins named here, by UniProt entry; tags and fusion partners are left off. A change or cut given only in a name is not applied to a line headed by its entry.
UniProt P37231: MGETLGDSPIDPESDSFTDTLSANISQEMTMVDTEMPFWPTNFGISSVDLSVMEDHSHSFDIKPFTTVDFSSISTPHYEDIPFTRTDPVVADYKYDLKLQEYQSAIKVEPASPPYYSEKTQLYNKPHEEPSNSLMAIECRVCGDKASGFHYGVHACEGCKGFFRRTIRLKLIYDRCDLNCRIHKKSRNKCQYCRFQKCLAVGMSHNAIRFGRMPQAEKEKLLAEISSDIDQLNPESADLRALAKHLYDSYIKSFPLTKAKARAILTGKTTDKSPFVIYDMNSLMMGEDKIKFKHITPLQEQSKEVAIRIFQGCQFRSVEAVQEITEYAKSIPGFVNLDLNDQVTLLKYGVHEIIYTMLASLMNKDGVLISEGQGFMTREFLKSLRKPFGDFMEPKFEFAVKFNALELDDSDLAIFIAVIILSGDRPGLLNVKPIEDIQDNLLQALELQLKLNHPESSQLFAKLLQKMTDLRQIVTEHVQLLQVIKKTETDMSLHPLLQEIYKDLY

The target in assay [3] is T1, Peroxisome proliferator-activated receptor delta. This is another data set of the same source.

pEC50, pKi: −log10 of the molar value.

As usually defined, the pKi is the Ki on a negative log10 scale, so that one unit is a factor of ten. A lower pKi goes with a large Ki. `O[C@@H]1[C@H](O)CS[C@H]1n1cnc2c(NCc3cccc(I)c3)nc(Cl)nc21`: the pKi in assay [1] was 5.48.
A word on the pEC50: it is the negative decadic logarithm of the EC50, by convention in mol/L. Higher therefore signals a small EC50. `O[C@@H]1[C@H](O)CS[C@H]1Cn1cnc2c(NCc3cccc(I)c3)nc(Cl)nc21` gave a pEC50 in assay [2] of 4.90. Also, in assay [3], the pKi is 6.97.
